Experimental data published in patent US20060079453A1, “Hla binding peptides and their uses” (priority 2002, published 2006).
pIC50: −log10 of the molar value. Like-named read-outs stand apart in the source and are kept apart here.

The chains behind the UniProt entries cited, without tags or fusion partners. Residues count along the entry.
UniProt Q30154, 30-266: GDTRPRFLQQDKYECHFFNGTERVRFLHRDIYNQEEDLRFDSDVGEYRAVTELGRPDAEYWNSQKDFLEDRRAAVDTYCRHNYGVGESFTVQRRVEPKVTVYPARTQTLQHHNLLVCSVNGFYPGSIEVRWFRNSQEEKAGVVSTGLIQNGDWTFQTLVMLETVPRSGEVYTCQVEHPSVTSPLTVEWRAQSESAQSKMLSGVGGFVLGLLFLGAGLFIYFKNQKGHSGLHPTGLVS

Tests used:
Assay in all cases: biochemical
Type in all cases: binding
[1] = target: HLA-DR DRB1*1501 (DR15) (Homo sapiens, UniProt P01903+P01911)
[2] = target: HLA-DR DRB1*0901 (DR9) (Homo sapiens, UniProt P01903+P01911, A100R/A103E/D57H/D86V/F55Y/F60I/F76Y/I96F/K127E/L162R/M171V/P40D/Q125H/Q99R/R33Q/R42F/S133A/S66N/T210M/V115G/W38K/Y107V/Y59G/Y89S); details: DRB1 *0901
[3] = target: HLA-DR DRB1*0802 (DR8) (Homo sapiens, UniProt P01903+P01911, A100R/A103L/A169T/F76Y/H45Y/I96F/K41T/L162R/M171V/P40S/Q125H/Q178H/Q39Y/Q99D/R218S/R42G/S66Y/V115G/W38E)
[4] = target: HLA-DR DRB1*1101 (DR11) (Homo sapiens, UniProt P01903+P01911, A100R/A169T/A87E/I96F/K41T/L162R/M171V/P40S/Q125H/Q178H/Q39Y/Q99D/R42S/S66Y/T262R/V115G/W38E)
[5] = target: HLA-DR DRB1*0405 (DR4) (Homo sapiens, UniProt P01903+P01911, A100R/A169T/D86S/F76Y/I96L/K127E/L162R/M171V/N62H/P40V/Q125Y/R42H/S133A/S149N/S66Y/V115G/V209L/W38E)
[6] = target: HLA-DR DRB4*0101 (DR53) (Homo sapiens, UniProt P01903+P13762, G164S)
[7] = target: HLA-DR DRB1*1302 (DR13) (Homo sapiens, UniProt P01903+P01911, A100E/A169T/K41T/L162R/M171V/P40S/Q125H/Q178H/Q39Y/Q99D/R42S/S66N/T262R/V115G/W38E/Y61H)
[8] = target: HLA-DR DRB1*0101 (DR1) (Homo sapiens, UniProt P01903+P01911, A100R/D57E/F55L/F60I/F76Y/I96L/L162R/M171V/P40L/Q125E/R42F/V115G/Y59C)
[9] = target: HLA-DR DRB1*0401 (DR4) (Homo sapiens, UniProt P01903+P01911, A100K/A169T/F76Y/I96L/K127E/L162R/M171V/N62H/P40V/Q125Y/R42H/S133A/S149N/S66Y/V115G/V209L/W38E)
[10] = target: HLA-DR DRB1*0301 (DR3) (Homo sapiens, UniProt P01903+P01911, A100K/A102G/A103R/A169T/F55Y/I96L/K41T/L162R/M171V/P40S/Q125H/Q178H/Q39Y/R42S/S66N/T106N/T262R/W38E/Y61H); details: read-out: DRB1 *0301
[11] = target: HLA-DR DRB5*0101 (DR51) (Homo sapiens, UniProt P01903+Q30154)
[12] = target: HLA-DR DRB1*0701 (DR7) (Homo sapiens, UniProt P01903+P01911, A100R/A102G/A103Q/D57E/D86V/E43K/F76Y/K127E/L162R/M171V/P40G/Q125H/Q99D/R33Q/R42Y/R54Q/S133A/S66F/T210M/V115G/Y107V/Y59L/Y89S)

CC(C)C[C@H](NC(=O)[C@@H](NC(=O)[C@H](C)NC(=O)[C@H](CCC(=O)O)NC(=O)[C@H](CO)NC(=O)[C@H](CC(C)C)NC(=O)[C@H](CC(C)C)NC(=O)[C@H](C)NC(=O)[C@H](CC(C)C)NC(=O)CNC(=O)[C@H](CCC(N)=O)NC(=O)[C@H](Cc1c[nH]c2ccccc12)NC(=O)[C@@H](NC(=O)[C@H](CCC(=O)O)NC(=O)[C@@H](N)C(C)C)C(C)C)C(C)C)C(=O)O
pIC50 ([1]; DRBI *1501): 7.24 | pIC50 [2]: 5.09 | pIC50 [3]: 4.87 | pIC50 ([4]; DRB1 *1101): 5.29 | pIC50 ([5]; DRB1 *0405): 7.10 | pIC50 ([6]; DRB4 *0101): 5.87 | pIC50 ([7]; DRBI *1302): 5.35 | pIC50 ([8]; DRB1 *0101): 7.07 | pIC50 ([9]; DRB1 *0401): 5.88

STGWNETIVENLLAN
pIC50 ([1]; read-out: DRBI *1501): 6.05 | pIC50 ([4]; read-out: DRB1 *1101): 4.69 | pIC50 ([5]; read-out: DRB1 *0405): 5.15 | pIC50 ([8]; read-out: DRB1 *0101): 4.67

KEDSHCAWTIVRVEI
pIC50 ([1]; read-out: DRBI *1501): 5.85 | pIC50 ([4]; read-out: DRB1 *1101): 5.03 | pIC50 ([6]; read-out: DRB4 *0101): 8.10 | pIC50 ([7]; read-out: DRBI *1302): 6.30

WTTCQSIAFPSKTSASIGSL
pIC50 [10]: 4.76 | pIC50 ([9]; read-out: DRB1 *0401): 7.66 | pIC50 ([11]; read-out: DRB5 *0101): 6.40

CSCC[C@H](N)C(=O)N[C@@H](CO)C(=O)N[C@@H](Cc1ccc(O)cc1)C(=O)N[C@@H](CC(N)=O)C(=O)N[C@@H](CC(C)C)C(=O)N[C@@H](CC(C)C)C(=O)NCC(=O)N[C@@H](Cc1ccccc1)C(=O)N[C@@H](CC(C)C)C(=O)N[C@@H](CCC(N)=O)C(=O)N[C@@H](CCCNC(=N)N)C(=O)N[C@@H](CO)C(=O)N[C@@H](CO)C(=O)N[C@@H](CC(N)=O)C(=O)N[C@@H](CS)C(=O)O
pIC50 ([1]; DRBI *1501): 7.05 | pIC50 [2]: 5.44 | pIC50 [3]: 5.47 | pIC50 ([4]; DRB1 *1101): 5.44 | pIC50 ([5]; DRB1 *0405): 6.10 | pIC50 ([6]; DRB4 *0101): 5.19 | pIC50 ([9]; DRB1 *0401): 6.44 | pIC50 ([11]; DRB5 *0101): 6.15

CC[C@H](C)[C@H](NC(=O)[C@H](CCC(=O)O)NC(=O)[C@H](CCC(=O)O)NC(=O)[C@@H]1CCCN1)C(=O)N[C@@H](CCCCN)C(=O)N[C@@H](CCC(N)=O)C(=O)N[C@@H](CC(C)C)C(=O)N[C@@H](CCC(N)=O)C(=O)N[C@@H](CCC(N)=O)C(=O)N[C@@H](Cc1ccccc1)C(=O)N[C@@H](CCC(N)=O)C(=O)N[C@@H](CCCCN)C(=O)N[C@@H](CCC(=O)O)C(=O)N[C@@H](CC(=O)O)C(=O)N[C@@H](C)C(=O)O
pIC50 ([4]; DRB1 *1101): 5.71 | pIC50 ([5]; DRB1 *0405): 5.10 | pIC50 ([11]; DRB5 *0101): 6.17

CC[C@H](C)[C@H](NC(=O)[C@@H](NC(=O)[C@H](Cc1c[nH]c2ccccc12)NC(=O)[C@H](C)NC(=O)[C@H](CS)NC(=O)[C@H](Cc1c[nH]cn1)NC(=O)[C@H](CO)NC(=O)[C@H](CC(=O)O)NC(=O)[C@H](CCC(=O)O)NC(=O)[C@H](CCCCN)NC(=O)[C@H](C)NC(=O)[C@H](CCCCN)NC(=O)[C@H](CC(C)C)NC(=O)[C@H](Cc1ccc(O)cc1)NC(=O)[C@@H](N)Cc1c[nH]cn1)[C@@H](C)O)C(=O)O
pIC50 ([12]; DRB1 *0701): 6.24 | pIC50 ([5]; DRB1 *0405): 5.43 | pIC50 ([6]; DRB4 *0101): 5.12 | pIC50 ([9]; DRB1 *0401): 5.69 | pIC50 ([11]; DRB5 *0101): 5.58

VDAQGTLSKAFKLGGRDSRS
pIC50 ([12]; read-out: DRB1 *0701): 5.93 | pIC50 ([8]; read-out: DRB1 *0101): 7.60 | pIC50 ([9]; read-out: DRB1 *0401): 5.80
